Biological target: kappa opioid receptor (Homo sapiens, UniProt P41145)
Format: biochemical
Parameters: purchased Millipore (Billerica, Mass.); host or cells: Chem-5 mammalian cell line

By UniProt entry, the sequences of proteins in these tests, tags left out. Where a name states a change or a piece, a line headed by the entry shows the natural chain unless it says otherwise.
UniProt P41145: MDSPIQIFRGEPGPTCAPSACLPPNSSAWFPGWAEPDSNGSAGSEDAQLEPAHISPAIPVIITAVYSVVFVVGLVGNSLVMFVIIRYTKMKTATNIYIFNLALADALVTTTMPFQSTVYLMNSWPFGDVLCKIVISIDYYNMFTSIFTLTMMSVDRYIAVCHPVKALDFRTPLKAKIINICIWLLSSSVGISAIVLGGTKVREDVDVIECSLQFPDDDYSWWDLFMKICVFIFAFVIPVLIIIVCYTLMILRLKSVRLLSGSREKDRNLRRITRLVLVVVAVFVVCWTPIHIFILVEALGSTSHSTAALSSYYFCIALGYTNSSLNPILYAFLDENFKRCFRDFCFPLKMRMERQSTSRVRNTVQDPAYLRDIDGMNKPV

COC(=O)[C@@H]1C[C@H](OC(C)=O)C(=O)[C@H]2[C@@]1(C)CC[C@H]1C(=O)O[C@H](c3ccoc3)C[C@]21C [salvinorin A]
G protein activation in the presence of kappa receptor: concentration dependently activate the G protein
